Results taken from patent publication US6716846B2, “High affinity ligands for nociceptin receptor ORL-1” (Schering Corporation, priority 1998, dated 2004).
pKi: −log10 of the molar value.

Molecular target: ORL-1 receptor (Homo sapiens, UniProt P41146)
Test: Nociceptin binding assay ([125I][Tyr14]nociceptin, CHO cell membranes)
Details: CHO cell membrane preparation expressing the ORL-1 receptor

O=C(C1CCCCC1)N1CN(c2ccccc2)C2(CCN(C(c3ccccc3)c3ccccc3)CC2)C1=O
pKi: 5.52
